Measurements reported in patent US10202345B2, “Substituted azaspiro(4.5)decane derivatives” (priority 2014, dated 2019).
pKi: −log10 of the molar value.

Chains of the proteins cited; added tags and fusions are not shown.
UniProt P35372, whole entry: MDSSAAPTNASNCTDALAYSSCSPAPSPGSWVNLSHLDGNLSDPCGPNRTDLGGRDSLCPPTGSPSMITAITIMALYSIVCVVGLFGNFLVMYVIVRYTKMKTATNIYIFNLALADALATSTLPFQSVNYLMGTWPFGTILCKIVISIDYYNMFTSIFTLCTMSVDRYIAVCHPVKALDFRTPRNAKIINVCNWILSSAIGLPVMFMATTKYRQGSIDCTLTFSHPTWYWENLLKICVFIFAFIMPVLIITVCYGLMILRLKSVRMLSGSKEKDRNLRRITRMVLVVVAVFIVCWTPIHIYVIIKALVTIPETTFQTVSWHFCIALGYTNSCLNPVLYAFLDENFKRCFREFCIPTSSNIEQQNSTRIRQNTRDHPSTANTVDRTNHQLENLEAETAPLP
UniProt P41146, whole entry: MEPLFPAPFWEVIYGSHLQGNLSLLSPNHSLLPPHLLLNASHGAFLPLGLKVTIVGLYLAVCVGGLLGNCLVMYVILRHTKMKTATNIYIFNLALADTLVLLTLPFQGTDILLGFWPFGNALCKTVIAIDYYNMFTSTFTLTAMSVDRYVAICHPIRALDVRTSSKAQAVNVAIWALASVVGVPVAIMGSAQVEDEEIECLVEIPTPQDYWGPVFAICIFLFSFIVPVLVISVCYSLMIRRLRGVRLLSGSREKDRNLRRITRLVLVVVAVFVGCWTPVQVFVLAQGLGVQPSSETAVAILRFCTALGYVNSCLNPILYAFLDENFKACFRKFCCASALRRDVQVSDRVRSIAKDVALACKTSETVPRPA

Columns and labels:
rats [1] = assay: Analgesia in the tail flick (focal ray) test in rats, intravenous administration
human μ opiate receptor = human μ opiate receptor (Homo sapiens, UniProt P35372); assay: μ opiate receptor binding assay with [3H]-naloxone (WGA-SPA beads); conditions: for pKi: read-out: Ki (μ) mean [μm], mean; for % inhibition (μ) [1 μM]: test concentration 1 μM
ORL1 receptor = ORL1 receptor (Homo sapiens, UniProt P41146); assay: ORL1 receptor binding assay with 3H-nociceptin/orphanin FQ (WGA-SPA beads); conditions: for pKi: read-out: Ki (ORL1) mean, mean; for % inhibition (ORL1) [1 μM]: test concentration 1 μM
rats [2] = assay: Chung model: mononeuropathy pain following spinal nerve ligation (mechanical allodynia, von Frey)

SMILES	Tail flick rat, i.v. ED50 rat [μg/kg] (rats [1]) [µg/kg]	pKi (human μ opiate receptor)	% inhibition (μ) [1 μM] (human μ opiate receptor; 1 µM) [%]	pKi (ORL1 receptor)	% inhibition (ORL1) [1 μM] (ORL1 receptor; 1 µM) [%]	SNL rat, i.v. % MPE (@μg/kg) (rats [2]; @21.5 μg/kg) [%@21.5]	Tail flick rat, i.v. % MPE (@μg/kg) (rats [1]; @100 μg/kg) [%@100]	Tail flick rat, i.v. % MPE (@μg/kg) (rats [1]; @1000 μg/kg) [%@1000]	% inhibition (μ) [1 μM] (human μ opiate receptor) [%]	% inhibition (ORL1) [1 μM] (ORL1 receptor) [%]	SNL rat, i.v. % MPE (@μg/kg) (rats [2]; @46.4 μg/kg) [%@46.4]	Tail flick rat, i.v. % MPE (@μg/kg) (rats [1]; @10 μg/kg) [%@10]
CN(C)C1(c2cccs2)CCC2(CC1)CC(=O)N(CCC1(C#N)CC1)C2 (single isomer, unassigned) [144]	11.5	8.69	99.5	8.39	91	64						
CN(C)C1(c2cccs2)CCC2(CC1)CC(=O)N(CCC1CCCO1)C2 (single isomer, unassigned) [137]		6.23	44	6.32	43		100					
CN(C)C1(c2cccs2)CCC2(CC1)CC(=O)N(CC1COC1)C2 (single isomer, unassigned) [148]		7.37	91	7.49	78			70				
COC(C)(C)CCN1CC2(CCC(c3ccccc3)(N(C)C)CC2)CC1=O (single isomer, unassigned) [182]	6.92	9.12	97	8.89	96.5							
CN(C)C1(c2cccs2)CCC2(CC1)CC(=O)N(CCC1CCOC1)C2 (single isomer, unassigned) [141]	4.84	8.72	97.5	8.57	90.5							
CN(C)C1(c2cccs2)CCC2(CC1)CC(=O)N(CC1CCOCC1)C2 (single isomer, unassigned) [138]	30.1	8.15	97	7.67	74							
CN(C)C1(c2ccccc2)CCC2(CCN(CCC3CCCO3)C2)CC1 (stereo not drawn)		9.03		8.61					99.5	93		
CN(C)C1(c2ccccc2)CCC2(CC1)CC(=O)N(CC1CC1)C2 (stereo not drawn) [172]		6.20	35.5	7.08	39.5							
CN(C)C1(c2ccccc2)CCC2(CC1)CC(=O)N(CC1COC1)C2 (single isomer, unassigned) [251]		7.27	87	7.67	82							
CN(C)C1(c2cccs2)CCC2(CC1)CC(=O)N(CC1CCOC1)C2 (stereo not drawn)		8.12		8.06					97	93.5		
CCCCC1(N(C)C)CCC2(CC1)CC(=O)N(CCC1(C#N)CC1)C2 (single isomer, unassigned) [402]		7.42	89	6.29	34.5							
CN(C)C1(c2cccs2)CCC2(CC1)CC(=O)N(CC1CCO1)C2 (single isomer, unassigned)		7.52		7.80					94.5	80.5		
CN(C)C1(Cc2ccccc2)CCC2(CCN(CC3CCCC3)C2=O)CC1 (single isomer, unassigned) [123]		6.82	71.5	5.73	22							
CN(C)C1(c2ccccc2)CCC2(CC1)CC(=O)N(CC1CCCC1)C2 (stereo not drawn)		6.77		7.00					83	76		
CN(C)C1(c2ccccc2)CCC2(CC1)CC(=O)N(CC1CCOC1)C2 (single isomer, unassigned) [261]		5.85	40	6.40	42.5							
CN(C)C1(c2ccccc2)CCC2(CC1)CC(=O)N(CCC1(C#N)CC1)C2 (single isomer, unassigned) [175]	55	8.62	99.5	8.40	96						72	
CN(C)C1(c2cccs2)CCC2(CC1)CC(=O)N(CCC1(C#N)CC1)C2 (single isomer, unassigned) [145]		6.79	77	7.17	53							
CN(C)C1(c2cccs2)CCC2(CC1)CC(=O)N(CC1CC1)C2 (stereo not drawn)		5.82		6.71					35.5	47.5		
CN(C)C1(c2ccccc2)CCC2(CC1)CC(=O)N(CCC(C)(C)C#N)C2 (single isomer, unassigned) [231]		7.23	91.5	6.74	43							
COC(C)(C)CCN1CC2(CCC(c3cccs3)(N(C)C)CC2)CC1=O (single isomer, unassigned) [220]		9.39	97	8.92	99							
CN(C)C1(c2ccccc2)CCC2(CC1)CC(=O)N(CCC1(C#N)CC1)C2 (single isomer, unassigned) [176]		6.76	72	6.98	63							

SMILES	Tail flick rat, i.v. ED50 rat [μg/kg] (rats [1]) [µg/kg]	pKi (human μ opiate receptor)	% inhibition (μ) [1 μM] (human μ opiate receptor; 1 µM) [%]	pKi (ORL1 receptor)	% inhibition (ORL1) [1 μM] (ORL1 receptor; 1 µM) [%]	SNL rat, i.v. % MPE (@μg/kg) (rats [2]; @21.5 μg/kg) [%@21.5]	Tail flick rat, i.v. % MPE (@μg/kg) (rats [1]; @100 μg/kg) [%@100]	Tail flick rat, i.v. % MPE (@μg/kg) (rats [1]; @1000 μg/kg) [%@1000]	% inhibition (μ) [1 μM] (human μ opiate receptor) [%]	% inhibition (ORL1) [1 μM] (ORL1 receptor) [%]	SNL rat, i.v. % MPE (@μg/kg) (rats [2]; @46.4 μg/kg) [%@46.4]	Tail flick rat, i.v. % MPE (@μg/kg) (rats [1]; @10 μg/kg) [%@10]
CN(C)C1(c2cccs2)CCC2(CC1)CC(=O)N(CCC1COC1)C2 (single isomer, unassigned) [242]		6.06	51	6.35	38.5							
CCCCN1CCC2(CCC(c3ccccc3)(N3CCC3)CC2)C1 (stereo not drawn)		5.60		5.87					44	38.5		
CN(C)C1(c2ccccc2)CCC2(CC1)CC(=O)N(CC1CCC1)C2 (stereo not drawn) [169]		8.92	102	8.99	95.5							
CN(C)C1(c2cccs2)CCC2(CCN(C(=O)C3(O)CC3)C2)CC1 (stereo not drawn)		7.50		6.95					94	60		
CN(C)C1(c2ccccc2)CCC2(CC1)CC(=O)N(CC1CCOC1)C2 (single isomer, unassigned) [260]		7.27	93.5	8.06	90							
CN(C)C1(c2ccccc2)CCC2(CC1)CC(=O)N(CC(C)(C)C#N)C2 (stereo not drawn) [310]		5.99	29.5	6.71	52							
COC(C)(C)CCN1CC2(CCC(c3cccs3)(N(C)C)CC2)CC1=O (single isomer, unassigned) [219]		6.02	46	6.50	36							
CN(C)C1(c2cccs2)CCC2(CC1)CC(=O)N(C[C@@H]1CCOC1)C2 (stereo partly drawn)		7.97		7.91					98.5	93		
CN(C)C1(c2ccccc2)CCC2(CC1)CC(=O)N(CCC1(C#N)CCC1)C2 (single isomer, unassigned) [177]			99.5	8.78	97.33		100					
CCCCC1(N(C)C)CCC2(CC1)CC(=O)N(CCC1CCOC1)C2 (single isomer, unassigned) [399]		5.24	20		0							
CN(C)C1(c2ccccc2)CCC2(CC1)CC(=O)N(CCC1CCC1)C2 (single isomer, unassigned) [174]		5.78	28	6.87	49.5							
CN(C)C1(c2cccs2)CCC2(CC1)CC(=O)N(CC(C)(C)O)C2 (single isomer, unassigned)		7.70		7.44					97	73.5		
CN(C)C1(C2CCCC2)CCC2(CC1)CC(=O)N(C[C@@H]1CCOC1)C2 (stereo partly drawn)		7.54		6.58					92	43.5		
CN(C)C1(c2ccccc2)CCC2(CC1)CC(=O)N(CC1CCOCC1)C2 (single isomer, unassigned) [270]		5.94	34	6.51	33.5							
CN(C)C1(c2cccs2)CCC2(CC1)CC(=O)N(CC1(O)CCC1)C2 (single isomer, unassigned)		8.21		8.02			52		98.5	85		
COC(C)(C)CCN1CC2(CCC(c3ccccc3)(N(C)C)CC2)CC1=O (single isomer, unassigned) [183]		6.10	23.5	6.52	39.5							
CN(C)C1(c2cccs2)CCC2(CC1)CC(=O)N(CC1CCC1)C2 (single isomer, unassigned) [133]		5.85	32	6.76	47.5							
CN(C)C1(c2cccs2)CCC2(CC1)CC(=O)N(CCC1(C#N)CCC1)C2 (single isomer, unassigned) [150]		9.40	99	8.69	95							90
CN(C)C1(c2ccccc2)CCC2(CC1)CC(=O)N(CC1CCOCC1)C2 (single isomer, unassigned) [269]		8.00	93	7.90	89.5							
CN(C)C1(c2cccs2)CCC2(CC1)CC(=O)N(CC1CCCC1)C2 (single isomer, unassigned) [127]		5.40	25.5	6.44	30							
